The values that follow come from ChEMBL document CHEMBL3621104, “Discovery of Indoline-2-carboxamide Derivatives as a New Class of Brain-Penetrant Inhibitors of Trypanosoma brucei” (J Med Chem, 2015).

Bounds are passed on as bounds.

The nature of the series: in vitro. As to conditions: human, MRC5 cells.
In the case of `CNC(=O)C1Cc2ccccc2N1C(=O)COc1ccc(Cl)cc1` (stereo not drawn), the selectivity ratio is > 1800. In the case of `CNC(=O)C1Cc2ccccc2N1C(=O)COc1ccc(F)cc1` (stereo not drawn), the selectivity ratio was > 2700.

With `CNC(=O)C1Cc2cc(F)ccc2N1C(=O)COc1ccc(F)cc1` (stereo not drawn), the selectivity ratio is > 720.
